Data taken from patent publication US20200010482A1, “INHIBITORS OF BETA SECRETASE” (Janssen Pharmaceutica NV, priority 2017, published 2020).

By UniProt entry, the sequences of proteins in these tests, tags left out. Residues count along the entry.
UniProt P56817, 46-501 limits assumed: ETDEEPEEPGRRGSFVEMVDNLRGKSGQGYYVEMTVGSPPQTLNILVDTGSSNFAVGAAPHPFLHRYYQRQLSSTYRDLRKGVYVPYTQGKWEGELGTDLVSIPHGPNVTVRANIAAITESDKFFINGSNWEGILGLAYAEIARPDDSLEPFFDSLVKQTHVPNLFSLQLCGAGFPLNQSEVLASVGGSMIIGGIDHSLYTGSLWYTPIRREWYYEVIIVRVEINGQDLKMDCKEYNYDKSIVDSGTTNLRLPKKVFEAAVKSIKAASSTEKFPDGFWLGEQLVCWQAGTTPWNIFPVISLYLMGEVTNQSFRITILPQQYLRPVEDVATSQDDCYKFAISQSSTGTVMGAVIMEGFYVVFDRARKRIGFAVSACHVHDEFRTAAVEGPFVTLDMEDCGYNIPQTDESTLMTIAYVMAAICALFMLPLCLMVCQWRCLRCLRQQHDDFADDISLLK
UniProt Q9Y5Z0, 63-518 limits assumed: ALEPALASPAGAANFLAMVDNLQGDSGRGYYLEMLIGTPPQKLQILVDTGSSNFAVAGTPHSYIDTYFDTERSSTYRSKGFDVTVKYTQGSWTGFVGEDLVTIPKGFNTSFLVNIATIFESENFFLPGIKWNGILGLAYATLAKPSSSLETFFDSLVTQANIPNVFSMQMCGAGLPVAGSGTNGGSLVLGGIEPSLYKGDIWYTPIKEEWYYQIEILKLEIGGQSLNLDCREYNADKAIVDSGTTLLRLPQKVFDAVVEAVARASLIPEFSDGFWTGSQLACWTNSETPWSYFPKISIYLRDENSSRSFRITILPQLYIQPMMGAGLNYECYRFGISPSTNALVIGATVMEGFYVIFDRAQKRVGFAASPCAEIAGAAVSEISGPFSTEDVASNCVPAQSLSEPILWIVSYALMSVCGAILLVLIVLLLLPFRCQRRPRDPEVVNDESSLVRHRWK

Legend:
BACE1 = BACE1 (Homo sapiens, UniProt P56817); test: BACE1 biochemical FRET based assay; conditions: recombinant BACE1 0.04 μg/ml, 20 μM substrate, 450 min, pH 5.0
Source text: (§1) This assay is a Fluorescence Resonance Energy Transfer Assay (FRET) based assay. The substrate for this assay is an APP derived 13 amino acids peptide that contains the ‘Swedish’ Lys-Met/Asn-Leu mutation of the amyloid precursor protein (APP) beta-secretase cleavage site. This substrate also contains two fluorophores: (7-methoxycoumarin-4-yl) acetic acid (Mca) is a fluorescent donor with excitation wavelength at 320 nm and emission at 405 nm and 2,4-Dinitrophenyl (Dnp) is a proprietary quencher acceptor. […] Upon cleavage by BACE1, the fluorophore Mca is separated from the quenching group Dnp, restoring the full fluorescence yield of the donor. The increase in fluorescence is linearly related to the rate of proteolysis.
Briefly in a 384-well format recombinant BACE1 protein in a final concentration of 0.04 μg/ml is incubated for 450 minutes at room temperature with 20 μM substrate in incubation buffer (50 mM Citrate buffer pH 5.0, 0.05% PEG) in the presence of compound or DMSO. Next the amount of proteolysis is directly measured by fluorescence measurement (excitation at 320 nm and emission at 405 nm) at different incubation times (0, 30, 60, 90, 120 and 450 min). For every experiment a time curve (every 30 min between 0 min and 120 min) is used to determine the time where we find the lowest basal signal of the high control. The signal at this time (Tx) is used to subtract from the signal at 450 min. Results are expressed in RFU, as difference between T450 and Tx.
(§2) A best-fit curve is fitted by a minimum sum of squares method to the plot of % Controlmin versus compound concentration. From this an IC50 value (inhibitory concentration causing 50% inhibition of activity) can be obtained. • LC=Median of the low control values=Low control: Reaction without enzyme • HC=Median of the High control values=High Control: Reaction with enzyme
(§3) % Effect=100−[(sample−LC)/(HC−LC)*100]
(§4) % Control=(sample/HC)*100
(§5) % Controlmin=(sample−LC)/(HC−LC)*100

[1] = test system: Abeta total produced and secreted by SKNBE2 cells expressing hAPP695; test: Cellular αLisa assay in SKNBE2 cells, Abeta total; conditions: SKNBE2 cells expressing hAPP695, 18 hours incubation
Method: (§6) In two αLisa assays the levels of Abeta total and Abeta 1-42 produced and secreted into the medium of human neuroblastoma SKNBE2 cells are quantified. The assay is based on the human neuroblastoma SKNBE2 expressing the wild type Amyloid Precursor Protein (hAPP695). The compounds are diluted and added to these cells, incubated for 18 hours and then measurements of Abeta 1-42 and Abeta total are taken. Abeta total and Abeta 1-42 are measured by sandwich αLisa. αLisa is a sandwich assay using biotinylated antibody AbN/25 attached to streptavidin coated beads and antibody Ab4G8 or cAb42/26 conjugated acceptor beads for the detection of Abeta total and Abeta 1-42 respectively. In the presence of Abeta total or Abeta 1-42, the beads come into close proximity. The excitation of the donor beads provokes the release of singlet oxygen molecules that trigger a cascade of energy transfer in the acceptor beads, resulting in light emission. Light emission is measured after 1 hour incubation (excitation at […] and emission at 615 nm).
as §2, with “cells preincubated” for “Reaction”, “compound, without biotinylated Ab in the αLisa” for “enzyme”, “cells preincubated without compound” for “Reaction with enzyme”
as §3, §4, §5

[2] = test system: Abeta 1-42 produced and secreted by SKNBE2 cells expressing hAPP695; test: Cellular αLisa assay in SKNBE2 cells, Abeta 1-42; conditions: SKNBE2 cells expressing hAPP695, 18 hours incubation
Method: as §6
as §2, with “cells preincubated” for “Reaction”, “compound, without biotinylated Ab in the αLisa” for “enzyme”, “cells preincubated without compound” for “Reaction with enzyme”
as §3, §4, §5

BACE2 = BACE2 (Homo sapiens, UniProt Q9Y5Z0); test: BACE2 biochemical FRET based assay; conditions: recombinant BACE2 0.4 μg/ml, 10 μM substrate, 450 min, pH 5.0
Source text: as §1, with “assay” for “assay is an APP derived 13 amino acids peptide that”, “the beta-secretase,” for “BACE1,”
Briefly in a 384-well format recombinant BACE2 protein in a final concentration of 0.4 μg/ml is incubated for 450 minutes at room temperature with 10 μM substrate in incubation buffer (50 mM Citrate buffer pH 5.0, 0.05% PEG, no DMSO) in the absence or presence of compound. Next the amount of proteolysis is directly measured by fluorescence measurement at T=0 and T=450 (excitation at 320 nm and emission at 405 nm). Results are expressed in RFU (Relative Fluorescence Units), as difference between T450 and TO.
as §2, §3, §4, §5

Row | BIOCHEMICAL FRET BASED ASSAY pIC50 (BACE1) | CELLULAR αLISA ASSAY IN SKNBE2 CELLS ABETA TOTAL pIC50 [1] | BIOCHEMICAL FRET BASED ASSAY pIC50 (BACE2) | Structure (SMILES) | CELLULAR αLISA ASSAY IN SKNBE2 CELLS ABETA 42 PIC50 [2]
1 | 7.88 | 8.7 | 6.67 | COc1ncc(-c2cnccc2C)c2c1C[C@]1(c3ccc(F)cc3F)N=C(N)SC[C@@H]1C2 | 8.7
2 | 8.15 | 8.46 | 7.03 | COc1ncc(-c2ccncc2Cl)c2c1C[C@]1(c3ccc(F)cc3F)N=C(N)SC[C@@H]1C2 | 8.45
3 | 8.22 | – | 8.06 | COc1ncc(-c2cccc(C#N)c2)c2c1C[C@]1(c3ccc(F)cc3F)N=C(N)SC[C@@H]1C2 | 8.39
4 | 8.35 | 8.31 | 7.27 | COc1ncc(-c2ccc(C#N)cc2C)c2c1C[C@]1(c3ccc(F)cc3F)N=C(N)SC[C@@H]1C2 | 8.26
5 | 8.5 | – | 7.16 | COc1ncc(-c2ccncc2C)c2c1C[C@]1(c3ccc(F)cc3F)N=C(N)SC[C@@H]1C2 | 9.04
6 | 7.06 | – | 6.78 | COc1ncc(-c2ccncc2C#N)c2c1C[C@]1(c3ccc(F)cc3F)N=C(N)SC[C@@H]1C2 | 7.76
7 | 8.08 | – | 7.91 | COc1ncc(-c2ccncc2)c2c1CC1(c3ccc(F)cc3F)N=C(N)SCC1C2 (stereo not drawn) | 8.74
8 | 7.57 | – | 7.32 | COc1ncc(Cl)c2c1C[C@]1(c3ccc(F)cc3F)N=C(N)SC[C@@H]1C2 | 7.35
9 | 8.16 | – | 7.86 | COc1ccc(-c2cnc(OC)c3c2C[C@H]2CSC(N)=N[C@@]2(c2ccc(F)cc2F)C3)cn1 | 8.46
10 | 7.94 | 8.24 | 6.65 | COc1ncc(-c2ccnc(C#N)c2C)c2c1C[C@]1(c3ccc(F)cc3F)N=C(N)SC[C@@H]1C2 | 8.36

The next lines start with the compound.

Row | Structure (SMILES) | BIOCHEMICAL FRET BASED ASSAY pIC50 (BACE1) | CELLULAR αLISA ASSAY IN SKNBE2 CELLS ABETA TOTAL pIC50 [1] | BIOCHEMICAL FRET BASED ASSAY pIC50 (BACE2) | CELLULAR αLISA ASSAY IN SKNBE2 CELLS ABETA 42 PIC50 [2]
11 | COc1ncc(-c2cnc(C)cc2C)c2c1C[C@]1(c3ccc(F)cc3F)N=C(N)SC[C@@H]1C2 | 7.25 | 8.2 | 6.08 | 8.3
12 | COc1nccc2c1CC1(c3ccc(Cl)cc3F)N=C(N)SCC1C2 (single isomer, unassigned) [196] | <5 | <5.05 | <5 | <5.05
13 | COc1nccc2c1CC1(c3ccc(Cl)cc3F)N=C(N)SCC1C2 (single isomer, unassigned) [197] | 7.02 | 7.33 | 7 | 7.31
14 | COc1ncc(-c2cc(C#N)ccc2C)c2c1C[C@]1(c3ccc(F)cc3F)N=C(N)SC[C@@H]1C2 | 8.17 | 7.96 | 6.4 | 8.13
15 | COc1ncc(OCc2ccccc2)c2c1C[C@]1(c3ccc(F)cc3F)N=C(N)SC[C@@H]1C2 | 8.06 | – | 7.91 | 7.6
16 | COc1ncc(OC(C)C)c2c1C[C@]1(c3ccc(F)cc3F)N=C(N)SC[C@@H]1C2 | 8.56 | 8.68 | 8.56 | 8.65
17 | COC(=O)c1ccccc1-c1cnc(OC)c2c1C[C@H]1CSC(N)=N[C@@]1(c1ccc(F)cc1F)C2 | 6.19 | – | 5.34 | 6.32
